Blank lines part the entries; values can stand above or below the molecule they belong to.
Molecular target: CD22 (Homo sapiens, UniProt P20273)
Experiment: SPR binding of RL1 N92 substitution variants to CD22
Details: for ka / kd: SPR, N92 variants of RL1 VL domain vs TNT70
Description: Humanized anti-CD22 antibodies described in Example 5 were next analyzed for potential sequence liabilities. A potential Asn deamination site is present in the CDR-L3 ([…]) of all humanized variants (FIG. 8B). This site was mutated in the RL1 VH domain to create antibody variants, which were tested for the impact of mutation on binding affinity to CD22. For engineering variants, […] was mutated to all possible amino acids. […] Binding properties of the mutants are summarized below and in FIGS. 15C-15F. All of the […] substitutions looked to be tolerable with respect to binding affinity to CD22.

B1: N92D: humanized anti-CD22 antibody variant: CDR-L3 N92 "mutated in the RL1 VH domain" to D; compared to TNT70 (antibody, V domains shown)
VH: QVQLLESGGGVVQPGGSLRLSCAASGFAFSIYDMNWVRQAPGKGLEWVSAISSGGGTTYYADSVKGRFTISRDNAKNSLYLQMNSLRAEDTAVYYCARHSGYGTHWGVLFAYWGRGTLVTVSS
VL: DIQMTQSPSSLSASVGDRVTITCRASQDIHGYLNWYQQKPGKAPKLLIYYTSILHSGVPSRFSGSGSGTDFTLTISSLQPEDFATYFCQQGDTLPWTFGQGTKLEIK
binding affinity to CD22 relative to parental antibody: comparable to the parental antibody | ka: 146000 M⁻¹ s⁻¹ | kd: 5.05e-05 s⁻¹

B2: N92E: humanized anti-CD22 antibody variant: CDR-L3 N92 "mutated in the RL1 VH domain" to E; compared to TNT70 (antibody, V domains shown)
VH: QVQLLESGGGVVQPGGSLRLSCAASGFAFSIYDMNWVRQAPGKGLEWVSAISSGGGTTYYADSVKGRFTISRDNAKNSLYLQMNSLRAEDTAVYYCARHSGYGTHWGVLFAYWGRGTLVTVSS
VL: DIQMTQSPSSLSASVGDRVTITCRASQDIHGYLNWYQQKPGKAPKLLIYYTSILHSGVPSRFSGSGSGTDFTLTISSLQPEDFATYFCQQGETLPWTFGQGTKLEIK
binding affinity to CD22 relative to parental antibody: comparable to the parental antibody | ka: 147000 M⁻¹ s⁻¹ | kd: 4.29e-05 s⁻¹

B3: N92F: humanized anti-CD22 antibody variant: CDR-L3 N92 "mutated in the RL1 VH domain" to F; compared to TNT70 (antibody, V domains shown)
VH: QVQLLESGGGVVQPGGSLRLSCAASGFAFSIYDMNWVRQAPGKGLEWVSAISSGGGTTYYADSVKGRFTISRDNAKNSLYLQMNSLRAEDTAVYYCARHSGYGTHWGVLFAYWGRGTLVTVSS
VL: DIQMTQSPSSLSASVGDRVTITCRASQDIHGYLNWYQQKPGKAPKLLIYYTSILHSGVPSRFSGSGSGTDFTLTISSLQPEDFATYFCQQGFTLPWTFGQGTKLEIK
binding affinity to CD22 relative to parental antibody: comparable to the parental antibody | ka: 155000 M⁻¹ s⁻¹ | kd: 4.58e-05 s⁻¹

Now from value to molecule:

ka: 151000 M⁻¹ s⁻¹ | kd: 6.8e-05 s⁻¹
B4: N92G: humanized anti-CD22 antibody variant: CDR-L3 N92 "mutated in the RL1 VH domain" to G; compared to TNT70 (antibody, V domains shown)
VH: QVQLLESGGGVVQPGGSLRLSCAASGFAFSIYDMNWVRQAPGKGLEWVSAISSGGGTTYYADSVKGRFTISRDNAKNSLYLQMNSLRAEDTAVYYCARHSGYGTHWGVLFAYWGRGTLVTVSS
VL: DIQMTQSPSSLSASVGDRVTITCRASQDIHGYLNWYQQKPGKAPKLLIYYTSILHSGVPSRFSGSGSGTDFTLTISSLQPEDFATYFCQQGGTLPWTFGQGTKLEIK

ka: 149000 M⁻¹ s⁻¹ | kd: 6.08e-05 s⁻¹
B5: N92H: humanized anti-CD22 antibody variant: CDR-L3 N92 "mutated in the RL1 VH domain" to H; compared to TNT70 (antibody, V domains shown)
VH: QVQLLESGGGVVQPGGSLRLSCAASGFAFSIYDMNWVRQAPGKGLEWVSAISSGGGTTYYADSVKGRFTISRDNAKNSLYLQMNSLRAEDTAVYYCARHSGYGTHWGVLFAYWGRGTLVTVSS
VL: DIQMTQSPSSLSASVGDRVTITCRASQDIHGYLNWYQQKPGKAPKLLIYYTSILHSGVPSRFSGSGSGTDFTLTISSLQPEDFATYFCQQGHTLPWTFGQGTKLEIK

Source: patent US11920136B2, “Transglutaminase-mediated conjugation” (Tallac Therapeutics, Inc., priority 2020, dated 2024)
